Assay results published in US5084454A, “2-(piperidinylmethyl)-4-phenyl-2,3-dihydro-4H-1,4-benzoxazines useful as antipsychotics” (Farmitalia Carlo Erba S.r.l., priority 1988, dated 1992).
Read-outs that look alike come from different tables or passages of the source.

Assays:
[1] = system: cataleptic activity in the mouse; conditions: in vivo, po; for ED50 Catalepsy: 6 h
[2] = biological target: T1, D2 dopamine receptor (Rattus norvegicus, UniProt P61169); assay: D2 dopamine receptor binding affinity, [3H]Spiperone
T1 construct: from tissue

[3] = system: apomorphine-induced climbing behaviour in mice; assay: antagonism of apomorphine-induced climbing behaviour in mice; format: in vivo, mouse; conditions: for ED50 Climbing: oral; for ED50: Mus musculus, po
Method: The activity of the compounds of the present invention on the central nervous system was also evaluated by following for instance the technique of Protais P. et al. (Psychopharmacology, 50, 1 (1976).
The toxicity of the compounds of the invention is negligible, therefore they can be safely used in therapy. Nine hours food deprived mice were treated orally with single administration of increasing doses, then housed and normally fed. The orientative acute toxicity (LD50) was assessed on the seventh day after the treatment and resulted, in general, higher than 600 mg/kg. Following Table 2 summarizes the biological data obtained according to the above mentioned tests for some compounds of the present invention; Haloperidol has been evaluated in the same tests for comparative purposes.

[4] = biological target: T2, 5HT2 serotonine receptor (Rattus norvegicus, UniProt P14842); assay: 5HT2 serotonine receptor binding affinity, [3H]Ketanserine; conditions: read-out: IC50 5HT2 [3H]Ket.
T2 construct: from tissue
Method: The activity of the compounds of the present invention was evaluated for example in a series of receptorial binding affinity tests.
J. Pharmacol. 1977, 46, 377; Hyttel, J. Life Sci. 1981, 28, 563; Pedigo et al. Journal of Neurochemistry, 1981, 36, 220; Leysen et al. Molecular Pharmacology, 1981, 21, 301; Battaglia et al. Life Science, 1983, 33, 2011; Greengrass P., Brener R. Eur. J. Pharmacol., 1979, 55, 323; and Perry B. D., U'Prichard D. C. Eur. J. Pharmacol. 1981, 76, 461]
In the table cis-Flu. means cis-Flupenthixol; Spip. means Spiperone; Serot. means Serotonin; Ket. means Ketanserine; Praz. means Prazosin and Yohim. means Yohimbine, respectively. The above internal FCE codes refer to the following compounds

[5] = biological target: T3, D1 dopamine receptor (Rattus norvegicus, UniProt P18901); assay: D1 dopamine receptor binding affinity, [3H]cis-Flupenthixol; conditions: read-out: IC50 D1 [3H]cisFlu.
T3 construct: from tissue

[6] = in vivo; conditions: mouse, po
[7] = in vivo; conditions: mouse, po, ED50 Catalepsy
[8] = system: mice; conditions: datum given according to Il Farmaco Ed. Sc. 1976, 31, 442; 10080 min; cited from earlier work

Compound	ED50 Catalepsy [1] [mg/kg]	IC50 ([2]; IC50 D2 [3H]Spip.) [µM]	ED50 Climbing [3] [mg/kg/os]	IC50 [4] [µM]	IC50 [5] [µM]	(ED50 Catalepsy / ED50 Climbing) [1]	IC50 ([2]; read-out: IC50 D2 [3H]Spip.) [µM]	LD50 at 168 h [6] [mg/kg]	ED50 at 6 h [7] [mg/kg]	ED50 [3] [mg/kg]	LD50 [8] [mg/kg/os]
O=C1NCN(c2ccccc2)C12CCN(CC1CN(c3ccccc3)c3ccccc3O1)CC2 (single isomer, unassigned; (+)) [FCE 25895, (+) 2-(1-phenyl-1,3,8-triazaspiro[4,5]decan-4-one-8-yl)-methyl-4-phenyl-2,3-dihydro-4H-1,4-benzoxazine]	61	0.005	3.8	0.006	1.2	–	–	–	–	–	–
O=C1NCN(c2ccccc2)C12CCN(CC1CN(c3ccccc3)c3ccccc3O1)CC2 (single isomer, unassigned; (-)) [FCE 25896, (-) 2-(1-phenyl-1,3,8-triazaspiro[4,5]decan-4-one-8-yl)-methyl-4-phenyl-2,3-dihydro-4H-1,4-benzoxazine]	22.7	–	1.8	0.08	> 10	12.6	0.2	> 800	–	–	–
O=C1NCN(c2ccccc2)C12CCN(CC1CN(c3ccccc3)c3ccccc3O1)CC2 (centres unmarked) [FCE 24867, 2-(1-phenyl-1,3,8-triazaspiro[4,5]decan-4-one-8-yl)-methyl-4-phenyl-2,3-dihydro-4H-1,4-benzoxazine]	–	0.008	–	0.04	1.4	–	–	–	30.8	4.5	–
O=C1NCN(c2ccccc2)C12CCN(CC1CN(c3ccc(F)cc3)c3ccc(F)cc3O1)CC2 (centres unmarked) [FCE 25452, 2-(1-phenyl-1,3,8-triazaspiro[4,5]decan-4-one-8-yl)-methyl-4-(4-fluorophenyl)-7-fluoro-2,3-dihydro-4H-1,4-benzoxazine]	–	0.009	–	0.02	0.9	–	–	–	–	–	–
OC1(c2cccc(C(F)(F)F)c2)CCN(CC2CN(c3ccccc3)c3ccccc3O2)CC1 (centres unmarked) [FCE 25456, 2-[4-(3-trifluoromethyl-phenyl)-4-hydroxy-piperidin-1-yl]-methyl-4-phenyl-2,3-dihydro-4H-1,4-benzoxazine]	–	0.001	–	0.1	> 10	8	–	> 800	20	2.5	–
O=C1NCN(c2ccccc2)C12CCN(CC1CN(c3ccc(F)cc3)c3ccccc3O1)CC2 (centres unmarked) [FCE 25676, 2-(1-phenyl-1,3,8-triazaspiro[4,5]decan-4-one-8-yl)-methyl-4-(4-fluorophenyl)-2,3-dihydro-4H-1,4-benzoxazine]	–	0.002	–	0.02	1	–	–	–	75	4.9	–
O=C1NCN(c2ccccc2)C12CCN(CC1CN(c3ccccc3)c3ccc(F)cc3O1)CC2 (centres unmarked) [FCE 25848, 2-(1-phenyl-1,3,8-triazaspiro[4,5]decan-4-one-8-yl)-methyl-4-phenyl-7-fluoro-2,3-dihydro-4H-1,4-benzoxazine]	–	0.04	–	0.03	2.4	–	–	–	–	–	–
O=C(CCCN1CCC(O)(c2ccc(Cl)cc2)CC1)c1ccc(F)cc1 [Haloperidol, reference compound]	–	–	–	–	–	–	–	–	2.2	0.5	71
